Results reported in ChEMBL document CHEMBL4622967, “Selective Class I HDAC Inhibitors Based on Aryl Ketone Zinc Binding Induce HIV-1 Protein for Clearance” (ACS Med Chem Lett, 2020).

Target: T1, Histone deacetylase 8 (Homo sapiens, UniProt Q9BY41)
T1 sequence (Q9BY41 whole entry): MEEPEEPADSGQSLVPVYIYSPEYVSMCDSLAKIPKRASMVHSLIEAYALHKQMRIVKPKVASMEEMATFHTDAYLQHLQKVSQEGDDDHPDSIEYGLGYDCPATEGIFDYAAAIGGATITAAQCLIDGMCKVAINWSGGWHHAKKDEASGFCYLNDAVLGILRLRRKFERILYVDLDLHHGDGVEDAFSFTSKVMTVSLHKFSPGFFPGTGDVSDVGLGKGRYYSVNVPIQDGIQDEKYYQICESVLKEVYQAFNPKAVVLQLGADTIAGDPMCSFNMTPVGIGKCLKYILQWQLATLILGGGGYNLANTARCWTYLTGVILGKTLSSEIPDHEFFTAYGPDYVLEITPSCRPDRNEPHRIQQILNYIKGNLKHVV

| IC50 | SMILES |
| --- | --- |
| 466 nM | N[C@@H](CCCCCC(=O)c1ccon1)c1cnn(-c2ccc(F)cc2)c1 |
| 445 nM | N[C@@H](CCCCCC(=O)c1ccon1)c1cnn(-c2ccc(F)cc2)n1 |
